Source: patent publication US20260325542A1, “CANCER TARGETING COMPLEX, AND COMPOSITION COMPRISING SAME FOR PREVENTING OR TREATING CANCER” (EWHA UNIVERSITY - INDUSTRY COLLABORATION FOUNDATION, priority 2023, published 2026)

Assays:
[1] = tested on: esterase; assay: Degradation of Alb-ECMal-PROTAC under esterase conditions, release of ARV-771 (RP-HPLC); format: biochemical, porcine; conditions: role: substrate, esterase 15 units, pH 8.0 (conjugation step)
Excerpt: In this example, ARV-771 (99.02%) was obtained from Chemscene (Monmouth Junction, NJ, USA). DMF (N,N-dimethylformamide; 99.8%), EDC-HCl (N-(3-dimethylaminopropyl)-N′-ethylcarbodiimide hydrochloride), DMAP (4-dimethylaminopyridine; 99%), esterase obtained from porcine liver, and TEA (triethylamine; 99.5%) were purchased and used from Sigma-Aldrich (St. Louis, MO, USA). 5-Azidovaleric acid (98%), 4-maleimidobutyric acid (98%), and 2-mercaptoethanol (98%) were commercially obtained and used from Tokyo Chemical Industry (TCI; Toshima, Tokyo, Japan). BCN-PEG2-Mal (Bicyclononyne-polyethylene glycol-maleimide; 95%) was purchased from Axispharm (San Diego, CA, USA), and acetonitrile (ACN) was purchased from Honeywell (Charlotte, NC, USA). DMSO (Dimethyl sulfoxide; 99%), BSA (bovine serum albumin; 98%), and TWEEN 20 were purchased from Biosesang (Ansan, Gyeonggi, Republic of Korea). Cy5.5-NHS(Cyanine 5.5-N-hydroxysuccinimide ester) and Cy5.5-COOH (cyanine 5.5-carboxylic acid) were purchased from Lumiprobe (Hunt Valley, MD, USA). […]
A BSA solution (200 μM) diluted with PBS was co-incubated by mixing it with an ECMal-PROTAC aqueous solution (140 μM) of example 1 at a 1:1 volume ratio. […] The mixture was collected at reaction times of 0 hours, 3 hours, 6 hours, and 9 hours, and analyzed by RP-HPLC. […]

[2] = Particle size by DLS before and after binding to albumin; format: physicochemical; conditions: BSA 200 μM and ECMal-PROTAC 140 μM in PBS, 1:1, 30 minutes
Method: A BSA solution (200 μM) diluted with PBS was co-incubated by mixing it with an ECMal-PROTAC aqueous solution (140 μM) of example 1 at a 1:1 volume ratio. The culture was collected after 30 minutes to obtain Alb-ECMal-PROTAC. The particle size of Alb-ECMal-PROTAC and BSA was measured through DLS.

Q: What does the source list for Alb-ECMal-PROTAC?
A: ARV-771 released within 48 hours [1]: 63.2%; average particle size [2]: 6.99±1.38 nm
